Consider four molecules from patent EP2790511B1 (Merck Sharp & Dohme Corp., priority 2011, dated 2013).

Usually IC50 stands for the concentration that gives 50% inhibition. Read a high IC50 as a need for much substance.

One experiment has as its target T1, Kir1.1 (ROMK1) (Homo sapiens, UniProt P48048).
T1 sequence (P48048 1-391): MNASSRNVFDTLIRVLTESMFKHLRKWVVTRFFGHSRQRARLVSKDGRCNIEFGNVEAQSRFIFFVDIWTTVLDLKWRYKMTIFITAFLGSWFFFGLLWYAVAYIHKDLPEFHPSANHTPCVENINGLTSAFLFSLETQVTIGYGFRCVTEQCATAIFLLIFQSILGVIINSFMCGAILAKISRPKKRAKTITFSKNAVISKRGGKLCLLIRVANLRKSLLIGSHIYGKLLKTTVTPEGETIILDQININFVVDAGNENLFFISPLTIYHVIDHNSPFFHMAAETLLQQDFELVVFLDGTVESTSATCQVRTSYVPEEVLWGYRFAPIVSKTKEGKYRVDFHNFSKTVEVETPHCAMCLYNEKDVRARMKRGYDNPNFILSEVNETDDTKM
Kind of experiment: Electrophysiology Assay (whole cell voltage clamp, IonWorks Quattro). A general note: In patch-clamp work, channel activity is measured electrically.

A further experiment deals with T2, hROMK (hKir1.1) (Homo sapiens, UniProt P48048).
T2 construct: expressed in transfected cells
T2 sequence (P48048 1-391): T1 sequence (P48048 1-391)
Kind of experiment: Thallium Flux Assay. It is filed as cell-based. As for the experimental part:
Cell Culture Conditions- HEK293 cells stably expressing hROMK (hKir1.1) were grown at 37°C in a 10%CO2 humidified incubator in complete growth media: Dulbecco's Modified Eagle Medium supplemented with non-essential amino acids, Penicillin/Streptomycin/Glutamine, G418 and FBS. At >80% confluency, aspirate the media from the flask and rinse with 10 mL Calcium/Magnesium-free PBS. […] To dislodge the cell, gently bang the side of the flask with your hand. Triturate the cells completely and then transfer the cells to 25 mL complete media. Centrifuge at 1,500 rpm for 6 min followed by resuspension in complete growth media and determine cell concentration. […] Under ideal growth conditions and appropriate tissue culture practices, this cell line is stable for 40-45 passages.
• FluxOR™ Reagent (Component A) • FluxOR™ Assay Buffer (Component B) - 10X Concentrate • PowerLoad™ Concentrate (Component C) - 100X Concentrate • Probenecid (Component D) - Lyophilized sample is kept at -20°C. Water soluble, 100X after solubilization in 1 mL water. […] Store at 4°C. • Thallium sulfate (Tl2SO4) Concentrate (Component G) - 50 mM in water. Store at 4°C • DMSO (dimethyl sulfoxide, Component H) - 1 mL (100%) […]
Data Calculation- The fluorescence intensity of wells containing 3 µM of a standard control ROMK inhibitor of the present invention is used to define the ROMK-sensitive component of thallium flux. Fluorescence in the presence of test compounds is normalized to control values to provide % fluorescence change.

In the case of `C[C@H]1Cc2cc([C@@H]3CN4CCN(C(=O)Cc5ccc(-n6cnnn6)nc5)C[C@H]4CO3)ccc2C(=O)O1` [Example 33, (3,S)-3-methyl-6-[(3R,9aS)-8-{[6-(1H-tetrazol-1-yl)pyridin-3-yl]acetyl}octahydropyrazino[2,1-c][1,4]oxazin-3-yl]-3,4-dihydro-1H-isochromen-1-one], the IC50 against Kir1.1 (ROMK1) and against hROMK (hKir1.1) was 80 nM in each case. In turn, `C[C@H]1Cc2cc([C@H]3CN4CCN(C(=O)Cc5ccc(-n6cnnn6)nc5)C[C@H]4CO3)ccc2C(=O)O1` [Example 34, (3S)-3-methyl-6-[(3S,9aS)-8-{[6-(1H-tetrazol-1-yl)pyridin-3-yl]acetyl}octahydropyrazino[2,1-c][1,4]oxazin-3-y]-3,4-dihydro-1H-isochromen-1-one] gave an IC50 on hROMK (hKir1.1) of 580 nM. With `C[C@H]1Cc2cc([C@H]3CN4CCN(C(=O)Cc5ccc(-n6cnnn6)nc5)C[C@@H]4CO3)ccc2C(=O)O1` [Example 35, (3S)-3-methyl-6-[(3S,9aR)-8-{[6-(1H-tetrazol-1-yl)pyridin-3-yl]acetyl}octahydropyrazino[2,1-c][1,4]oxazin-3-yl]-3,4-dihydro-1H-isochromen-1-one], the midpoint of inhibition on hROMK (hKir1.1), the IC50, lay at 180 nM. Regarding `C[C@@H]1Cc2cc([C@@H]3CN4CCN(C(=O)Cc5ccc(-n6cnnn6)nc5)C[C@H]4CO3)ccc2C(=O)O1` [Example 36], the IC50 on Kir1.1 (ROMK1) turned out to be 150 nM.
